# Assay results as given in PubChem BioAssay AID1224863 (Southern Research Institute, 2016).
# Chains of the proteins cited; added tags and fusions are not shown. A line that says so, or that is headed by a name, gives the form on record, which may keep a tag or linker.
# UniProt P13569, with tags, fused parts or gaps F508del: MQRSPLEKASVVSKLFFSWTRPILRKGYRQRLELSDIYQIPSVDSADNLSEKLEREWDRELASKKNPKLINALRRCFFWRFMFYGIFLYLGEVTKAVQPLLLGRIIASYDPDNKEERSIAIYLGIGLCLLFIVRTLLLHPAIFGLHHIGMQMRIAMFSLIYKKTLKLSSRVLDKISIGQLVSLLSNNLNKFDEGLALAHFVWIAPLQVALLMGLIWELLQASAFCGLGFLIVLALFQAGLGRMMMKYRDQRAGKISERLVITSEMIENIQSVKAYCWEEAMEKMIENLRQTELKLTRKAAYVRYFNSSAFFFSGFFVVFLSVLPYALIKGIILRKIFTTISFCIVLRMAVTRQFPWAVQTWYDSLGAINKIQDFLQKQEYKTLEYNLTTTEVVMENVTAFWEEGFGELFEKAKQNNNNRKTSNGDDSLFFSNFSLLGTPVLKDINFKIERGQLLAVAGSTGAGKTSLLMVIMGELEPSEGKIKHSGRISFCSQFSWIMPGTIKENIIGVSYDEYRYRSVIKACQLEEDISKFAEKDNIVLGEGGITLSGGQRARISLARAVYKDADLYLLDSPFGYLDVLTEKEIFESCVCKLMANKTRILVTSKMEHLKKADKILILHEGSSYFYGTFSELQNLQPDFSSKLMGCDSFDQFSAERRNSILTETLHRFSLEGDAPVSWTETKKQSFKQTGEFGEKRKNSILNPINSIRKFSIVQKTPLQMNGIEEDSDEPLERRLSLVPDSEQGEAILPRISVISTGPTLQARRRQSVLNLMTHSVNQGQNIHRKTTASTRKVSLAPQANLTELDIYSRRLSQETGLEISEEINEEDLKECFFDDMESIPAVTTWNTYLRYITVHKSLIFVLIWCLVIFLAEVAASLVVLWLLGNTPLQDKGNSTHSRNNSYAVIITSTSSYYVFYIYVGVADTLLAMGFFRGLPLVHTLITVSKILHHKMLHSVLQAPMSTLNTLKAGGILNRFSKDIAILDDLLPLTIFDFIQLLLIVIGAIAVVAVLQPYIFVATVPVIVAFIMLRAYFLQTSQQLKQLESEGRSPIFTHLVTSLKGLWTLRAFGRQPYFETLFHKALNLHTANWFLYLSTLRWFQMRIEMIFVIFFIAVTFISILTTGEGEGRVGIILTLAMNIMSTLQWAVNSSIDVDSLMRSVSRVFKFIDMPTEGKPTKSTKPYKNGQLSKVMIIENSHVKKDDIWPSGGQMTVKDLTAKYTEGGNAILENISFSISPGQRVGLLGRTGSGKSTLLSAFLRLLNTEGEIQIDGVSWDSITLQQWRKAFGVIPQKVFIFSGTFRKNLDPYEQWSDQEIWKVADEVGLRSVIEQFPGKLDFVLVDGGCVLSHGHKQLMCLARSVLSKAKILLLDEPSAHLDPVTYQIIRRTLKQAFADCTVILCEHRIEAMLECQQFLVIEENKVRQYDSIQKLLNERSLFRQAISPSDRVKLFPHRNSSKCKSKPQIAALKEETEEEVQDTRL
# The campaign covered roughly 10,000 compounds. About 15 (0.1%) were called active.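 Rule for the calls: active = highest signal at least 8 times the median of untreated cell-only control wells at some dose; inactive = the rest.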 These entries were drawn from the full list.
# Tests used:
# [1] = total CFTR protein upregulators, primary screen, cell-based, HeLa F508del-CFTR, immunofluorescence, viability (AID 1224863); conditions: 24 h, stronger effect = higher value; min viability: measured here: HeLa viability, alamarBlue, dose 20, library dosed in µg/mL unless noted; viability: measured here: primary viability 10 ug/mL, library dosed in µg/mL unless noted;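 for fold increase: total CFTR protein by anti-CFTR immunofluorescence in fixed cells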
# [2] = target: Cystic fibrosis transmembrane conductance regulator (Homo sapiens) (UniProt P13569); assay: as above; conditions: 24 h; fold increase: measured here: primary screen 10 ug/mL, library dosed in µg/mL, stronger effect = higher value unless noted; max fold increase: dose 10, library dosed in µg/mL, stronger effect = higher value unless noted; outcome: library dosed in µg/mL unless noted
Structure (SMILES),viability [1] [%],fold increase [2],outcome [2]
Cc1noc2nc(-c3ccco3)cc(C(=O)OCc3cc(=O)n4cc(Cl)ccc4n3)c12,101,1.11,inactive
CC1(c2ccccc2)NC(=O)N(Cc2cc(=O)n3ccccc3n2)C1=O (stereo not drawn),91,1.06,inactive
Cn1ncc2c(NCC3(N4CCCCC4)CCCCC3)ncnc21,96,1.05,inactive
CC(C(=O)NC1CCCCCC1)N1CCN(C(C)C(=O)NC2CC2)CC1 (stereo not drawn),95,1.06,inactive
Fc1ccc(-c2[nH]ncc2CNCc2ccccc2Cn2cncn2)cc1,104,1.01,inactive
CC(c1nnc(-c2cccs2)o1)N1CCC(O)CC1 (stereo not drawn),99,1.04,inactive
Cn1cc(S(=O)(=O)N2CCN(Cc3nc(N)nc(N)n3)CC2)cc1C(N)=O,91,0.98,inactive
Cn1c(SCc2ccc(-n3cccn3)cc2)nc2ccccc21,92,0.97,inactive
Cc1sc2nc(CN3CCCC3)nc(-n3nnc(-c4cccnc4)n3)c2c1C,84,1.04,inactive
Cc1cc(C)cc(-c2nnc(SC3CCCCC3=O)o2)c1 (stereo not drawn),112,1.07,inactive
CC1Oc2ccc(NC(=O)C3=NN(C)C(=O)CC3)cc2NC1=O (stereo not drawn),100,0.99,inactive
Cc1ccc(C)c(CS(=O)(=O)Cc2ccccc2SC(F)F)c1,86,1.03,inactive
Cc1oc(C)c(C(=O)Nc2ncn[nH]2)c1C,86,0.86,inactive
CC1CCC(NC(=O)c2ccc([N+](=O)[O-])s2)CC1 (stereo not drawn),77,0.76,inactive
Cc1ccc(-n2nnnc2SCc2cn3cccc(C)c3n2)cc1C,79,0.98,inactive
C=CCOc1ccc(/C(O)=C2/C(=O)C(=O)N(CCCN(C)C)C2c2cccc(Br)c2)cc1 (stereo not drawn),91,1.07,inactive
O=S(=O)(c1ccc2ccccc2c1)N1CCN(S(=O)(=O)c2ccccc2Cl)CC1,94,1.06,inactive
Clc1ccc(-c2nc(Sc3ccccc3Cl)c3c4c(sc3n2)CCC4)cc1,91,1.15,inactive
Cc1c(C2Nc3ccccc3C(=O)N2c2ccc3c(c2)OCO3)cc(C#N)n1C (stereo not drawn),100,1.05,inactive
O=C(O)CN1C(=O)COc2cc(Br)ccc21,101,1.01,inactive
NC1CC(=O)N(c2ccc(Oc3ccccc3)cc2)C1 (stereo not drawn),60,0.71,inactive
Cc1cn2nc(NC3CCCC3)sc2n1,96,0.88,inactive

Structure (SMILES),viability [1] [%],fold increase [2],outcome [2]
COc1cc(OC)c(CNC(C)c2ccc(F)cc2F)c(OC)c1 (stereo not drawn),103,1.05,inactive
CSc1ccc(OCC(=O)c2[nH]c(C)c(C(C)=O)c2C)cc1,77,0.86,inactive
COCCn1c(SCC(=O)c2[nH]c(C)c(C(C)=O)c2C)nc2sc3c(c2c1=O)CCCC3,102,1.01,inactive
CCCn1c(N)c(C(=O)CN2CCC(O)CC2)c(=O)[nH]c1=O,91,1.07,inactive
COC(=O)c1ccc(C2NC(=O)NC(C)=C2C(=O)c2ccc(Cl)cc2)cc1 (stereo not drawn),87,1.02,inactive
N#CCCN1CCN(C(=O)C23CC4CC(CC(C4)C2)C3)CC1,86,1.05,inactive
Cc1nn(Cc2ccccc2Cl)c(C)c1CN(C)c1ccc2nnnn2n1,101,0.94,inactive
O=C1c2ccccc2S(=O)(=O)NN1Cc1ccc(Br)cc1,110,0.99,inactive
Cc1ccc(-c2nnc(NCCC(C)C)c3ccccc23)cc1C,97,0.94,inactive
CSc1ncccc1C(=O)NC1CC2CC1C1CCCC21 (stereo not drawn),103,1.14,inactive
C=CCNC(=O)NC(=O)CN(Cc1nccn1C(F)F)C1CC1,83,1.18,inactive
C=CCn1c(SCC)nnc1-c1ccc([N+](=O)[O-])cc1,88,1.02,inactive
CC(OC(=O)C1=Cc2ccccc2OC1)C(=O)C12CC3CC(CC(C3)C1)C2 (stereo not drawn),91,1.1,inactive
O=C1C2CCCCC2C(=O)N1CC(O)COCc1ccc2c(c1)OCO2 (stereo not drawn),99,1.1,inactive
C=CCNCC(F)(F)F,95,1.07,inactive
O=S(=O)(C1=Cc2ccccc2CC1)N1CCCC1c1ccc(F)cc1 (stereo not drawn),97,0.99,inactive
CCCN(CC1CC1)C(=O)CSc1nc(C)nc2sc3c(c12)CCCC3,81,0.94,inactive
CC1CCCN(S(=O)(=O)N2CCC(N3CCCc4ccccc43)CC2)C1 (stereo not drawn),82,0.89,inactive
O=C(C1CCCO1)N1CCN(Cc2ccc3c(c2)CCO3)CC1 (stereo not drawn),90,1.05,inactive
O=c1oc2ccc([N+](=O)[O-])cc2n1CN1CCN(c2cccc(Cl)c2)CC1,82,0.77,inactive
Cc1ccc(C2(C)NC(=O)N(Cc3coc(-c4ccc(C)cc4C)n3)C2=O)cc1 (stereo not drawn),85,0.96,inactive
O=S(=O)(Nc1cc2c(cc1Br)OCCO2)c1ccc(Br)cc1,88,1.03,inactive

Structure (SMILES),viability [1] [%],fold increase [2],outcome [2]
Cc1cc(C)n2c(SCc3cc(-c4ccccc4)on3)nnc2n1,97,1.06,inactive
CCCCS(=O)(=O)Nc1ccc(F)c(N)c1,102,0.96,inactive
O=C(CNC(=O)c1ccco1)NC1CCC2CCCCC2C1 (stereo not drawn),75,1.02,inactive
Cc1cc(C(=O)CSc2nnc(-c3ccoc3C)o2)c(C)s1,84,0.89,inactive
O=C(CSc1nnnn1C1CC1)NC(c1cccs1)C1CCCC1 (stereo not drawn),90,0.94,inactive
CCOC(=O)c1oc2ccccc2c1COC(=O)c1ccc2c(c1)CCC(=O)N2,81,1,inactive
CCn1cnnc1SCCCCN1C(=O)c2ccccc2C1=O,106,1.03,inactive
CC(=O)N1C=Cc2ccccc2C1CC(=O)Nc1cc2c(cc1Cl)OCO2 (stereo not drawn),89,0.97,inactive
O=S(=O)(Cc1ccc(F)cc1Cl)C12CC3CC(CC(C3)C1)C2,104,1.1,inactive
CCOCCCNc1nnc(SC(C(=O)NC(N)=O)C(C)C)s1 (stereo not drawn),97,0.95,inactive
Cc1nc(CNC(C(=O)O)C(C)C)cs1 (stereo not drawn),88,1.06,inactive
CC(C)Cn1nnc(-c2ccc(Cl)cc2)n1,99,1.4,inactive
O=C(O)c1cc(C2CC2)nc2onc(-c3ccco3)c12,109,1.11,inactive
N#Cc1nc2c(S(=O)(=O)c3ccc(Cl)cc3)c(N)n(Cc3ccc(C(F)(F)F)cc3)c2nc1C#N,87,0.86,inactive
Cc1cc(C)n2c(=S)n(CN(C)Cc3ccccc3Cl)nc2n1,97,0.97,inactive
CC(NCC(O)c1ccccc1)c1ccccc1 (stereo not drawn),103,1.06,inactive
CC(Cc1ccc(Cl)cc1)NC(=O)C1(C)CC1(Cl)Cl (stereo not drawn),94,0.98,inactive
COc1ccc2c(COC(=O)c3ccc4c(c3)S(=O)(=O)N=C3CCCCCN34)cc(=O)oc2c1,83,1.02,inactive
CCc1c(C)sc2nc(SCCO)n(CCOC)c(=O)c12,95,1,inactive
CCOC(=O)C1=C(CC)Nc2ccccc2N=C1NC(=O)C12CC3CC(CC(Cl)(C3)C1)C2,85,1.09,inactive
Cn1ccc(S(=O)(=O)N2CCN(C(=O)CCC(=O)c3cccs3)CC2)c1,103,1.19,inactive
CCc1cc(OCCCCNC)ccc1Cl,104,1.06,inactive

Structure (SMILES),viability [1] [%],fold increase [2],outcome [2]
Cc1c(C(=O)CN2C(=O)NC3(CCOc4ccccc43)C2=O)sc2ccccc12 (stereo not drawn),115,1.07,inactive
COC(=O)c1ccc(OCC(=O)c2ccc3c(c2)CCO3)c(OC)c1,97,1.01,inactive
CC(CCc1ccco1)NC(=O)N1CCN(Cc2nc3scc(-c4cccs4)c3c(=O)[nH]2)CC1 (stereo not drawn),92,0.93,inactive
c1ccc2c(c1)ncn2CN1CCN(Cc2csc3ccccc23)CC1,107,1.18,inactive
Cc1cccc(CN2CCN(CN3C(=O)C(=O)N(C(C)C)C3=O)CC2)c1,95,1.02,inactive
CN(C)S(=O)(=O)N1CCN(C(=O)Nc2cccc3c2CCCC3)CC1,102,0.97,inactive
COCC(C)NC(=O)c1sccc1C (stereo not drawn),102,0.9,inactive
CC(C)(C)OC(=O)N1CC=C(n2c(=O)n(CN3CCN(c4ccccc4)CC3)c3ccccc32)CC1,98,1.06,inactive
COc1ccc(C)cc1-n1nnnc1SCC1CC1(Cl)Cl (stereo not drawn),86,0.87,inactive
Cn1nnnc1SCc1ncc(-c2ccc(F)cc2)o1,94,1.03,inactive
CN(C)S(=O)(=O)c1ccc(CN2C(=O)NC(C)(c3ccco3)C2=O)o1 (stereo not drawn),97,0.98,inactive
COc1ccc(S(=O)(=O)Nc2ccc(N3CCCC3)cc2)cc1OC,84,0.85,inactive
N#Cc1ccc(CS(=O)(=O)N2CCCCCCC2)cc1,95,1.03,inactive
Nc1cnn(CCO)c1,92,0.96,inactive
CC(c1cc2ccccc2o1)N(C)Cc1noc(C(C)(C)C)n1 (stereo not drawn),89,0.88,inactive
N#Cc1nncn1-c1ncnc2sc3c(c12)CCC3,95,1.06,inactive
CCNc1nc(C)nc2sc(CC)cc12,84,0.96,inactive
CCC(C)(C)NC(=O)CCNC(=O)/C=C/c1ccco1,80,0.85,inactive
CC(C)Sc1nc2cc(Cl)ccc2c(=O)n1CC1CCCO1 (stereo not drawn),90,0.87,inactive
CC(C)(C)N=C1NN=C(c2cccc(F)c2)CS1,75,0.85,inactive
